{"source": "patent US20160106813A1", "about": "(CENTRE NATIONAL DE LA RECHERCHE SCHIENTIFIQUE (CNRS), priority 2013, published 2016)", "key": {"HIV-1-infected cells": {"test_system": "HIV-1-infected cells", "assay": "Inner foreskin explants exposed to HIV-1-infected cells: LC-TC conjugate formation and mucosal TC infection, flow cytometry", "type": "cell-based", "conditions": "100 nM CGRP 24 h pretreatment, 4 h exposure", "protocol": "FIG. 3: LC-TC conjugate formation and mucosal TC infection. […] Shown are representative FACS profiles with numbers representing the mean±s.e.m. (n=3) percentages within the entire cell-suspensions of either CD3+/CD1a+/high FSC LC-T-cell conjugates (top, epidermis) or CD3+/p24+ cells (bottom, dermis).\nInner foreskin explants were prepared, inoculated with HIV-1-infected PBMCs and processed for flow cytometry, as described (Zhou, et al.; PLoS Pathog 7:e1002100.)."}, "CGRP": {"test_system": "CGRP", "assay": "CGRP secreted by MDLCs to culture supernatants, CGRP ELISA", "type": "cell-based, human", "conditions": "100 nM CGRP 24 h pretreatment, washed, fresh medium 24 h", "protocol": "The cells were then washed extensively and cultured in fresh medium for additional 24 h. The levels of CGRP secreted to the culture supernatants were measured by CGRP ELISA. Results represent mean±SEM from n=2 human donors. * p=0.0061 for CGRP-treated vs untreated; Student's t-test."}, "CD29, CD49e and CD50": {"test_system": "CD29, CD49e and CD50", "assay": "Surface expression of integrins on Langerhans cells", "type": "cell-based"}, "HIV-1 JRCSF": {"test_system": "HIV-1 JRCSF", "assay": "HIV-1 content in lysates of HIV-1-pulsed Langerhans cells (HIV-1 degradation), p24 ELISA", "type": "cell-based", "conditions": "CGRP 100 nM, 24 h pretreatment", "excerpt": "The cells were then lysed with NP40 for HIV-1 degradation measurement by p24 ELISA (Innotest; Innogenetics, Gent, Belgium)."}, "langerin": {"test_system": "langerin", "assay": "Langerin surface expression on MDLCs by flow cytometry", "type": "cell-based, human", "conditions": "CGRP 100 nM, 24 h", "protocol": "Flow cytometry for langerin surface expression was performed with a PE-conjugated mouse-anti-human langerin mAb (Beckman Coulter, Marseille, France). Each step was performed for 30 min on ice at 500/well."}}, "data": [{"molecule": "CC(C)C[C@H](NC(=O)CNC(=O)[C@H](C)NC(=O)[C@H](CC(C)C)NC(=O)[C@H](CCCNC(=N)N)NC(=O)[C@H](Cc1c[nH]cn1)NC(=O)[C@@H](NC(=O)[C@@H](NC(=O)[C@@H]1CSSC[C@H](NC(=O)[C@H](C)N)C(=O)N[C@@H](CC(=O)O)C(=O)N[C@@H]([C@@H](C)O)C(=O)N[C@@H](C)C(=O)N[C@@H]([C@@H](C)O)C(=O)N1)C(C)C)[C@@H](C)O)C(=O)N[C@@H](CC(C)C)C(=O)N[C@@H](CO)C(=O)N[C@@H](CCCNC(=N)N)C(=O)N[C@@H](CO)C(=O)NCC(=O)NCC(=O)N[C@H](C(=O)N[C@H](C(=O)N[C@@H](CCCCN)C(=O)N[C@@H](CC(N)=O)C(=O)N[C@@H](CC(N)=O)C(=O)N[C@@H](Cc1ccccc1)C(=O)N[C@H](C(=O)N1CCC[C@H]1C(=O)N[C@H](C(=O)N[C@@H](CC(N)=O)C(=O)N[C@H](C(=O)NCC(=O)N[C@@H](CO)C(=O)N[C@@H](CCCCN)C(=O)N[C@@H](C)C(=O)N[C@@H](Cc1ccccc1)C(N)=O)C(C)C)[C@@H](C)O)C(C)C)C(C)C)C(C)C", "note": "[CGRP]", "values": [{"measurement": "TCs infection mediated by HIV-1-infected cells (CD3+p24+ cells)", "setting": "HIV-1-infected cells", "value": "abrogated"}, {"measurement": "increase in LC-TC conjugate formation mediated by HIV-1-infected cells", "setting": "HIV-1-infected cells", "value": "abrogated"}, {"measurement": "CGRP secretion by MDLCs", "setting": "CGRP", "value": "significant increase"}, {"measurement": "surface expression of several integrins (CD29, CD49e and CD50)", "setting": "CD29, CD49e and CD50", "value": "decreasing"}, {"measurement": "total HIV-1 content in cell lysates", "setting": "HIV-1 JRCSF", "value": "decrease"}, {"measurement": "langerin surface expression", "setting": "langerin", "value": "increase"}]}]}
